Experimental data taken from the NIST ThermoML archive (doi:10.1016/j.jct.2015.02.004).

Legend:
[1] = Crystal; DTA
[2] = Molar enthalpy of transition or fusion; details: Crystal; DSC

C/C=C/C=C/C(=O)O [2,4-hexadienoic acid]
Normal melting temperature [1]: 132.2 ± 0.7 °C
Molar enthalpy of transition or fusion [2]: 18.8 ± 1.2 kJ/mol

Numbers after ± are expanded uncertainties.
